Assay results taken from US20240327353A1.

The chains behind the UniProt entries cited, without tags or fusion partners. Residues count along the entry.
UniProt P28335, 33-458: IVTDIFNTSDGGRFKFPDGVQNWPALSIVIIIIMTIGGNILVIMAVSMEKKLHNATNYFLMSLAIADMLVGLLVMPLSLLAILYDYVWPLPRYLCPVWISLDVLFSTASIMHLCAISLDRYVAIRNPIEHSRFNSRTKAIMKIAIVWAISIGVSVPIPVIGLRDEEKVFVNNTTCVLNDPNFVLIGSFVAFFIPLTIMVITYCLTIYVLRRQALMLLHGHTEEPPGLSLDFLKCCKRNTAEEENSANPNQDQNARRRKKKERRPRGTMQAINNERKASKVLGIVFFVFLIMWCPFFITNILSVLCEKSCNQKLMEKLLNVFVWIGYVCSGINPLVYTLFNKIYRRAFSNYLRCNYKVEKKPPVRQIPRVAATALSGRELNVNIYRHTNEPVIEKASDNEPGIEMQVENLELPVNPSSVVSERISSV
UniProt P41595, whole entry: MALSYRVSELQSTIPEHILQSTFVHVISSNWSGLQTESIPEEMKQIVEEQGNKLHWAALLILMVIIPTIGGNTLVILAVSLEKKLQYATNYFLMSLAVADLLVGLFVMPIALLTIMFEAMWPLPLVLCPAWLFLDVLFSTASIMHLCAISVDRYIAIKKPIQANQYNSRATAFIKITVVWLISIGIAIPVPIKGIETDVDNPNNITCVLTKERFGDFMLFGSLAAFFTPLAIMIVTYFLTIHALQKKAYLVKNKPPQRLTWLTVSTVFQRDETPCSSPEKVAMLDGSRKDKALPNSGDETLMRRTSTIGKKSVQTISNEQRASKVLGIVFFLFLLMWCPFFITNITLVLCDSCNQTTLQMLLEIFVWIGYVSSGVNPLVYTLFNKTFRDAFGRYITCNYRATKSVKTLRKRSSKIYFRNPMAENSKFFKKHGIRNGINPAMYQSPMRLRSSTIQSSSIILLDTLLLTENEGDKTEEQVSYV
UniProt P28223, whole entry D231F: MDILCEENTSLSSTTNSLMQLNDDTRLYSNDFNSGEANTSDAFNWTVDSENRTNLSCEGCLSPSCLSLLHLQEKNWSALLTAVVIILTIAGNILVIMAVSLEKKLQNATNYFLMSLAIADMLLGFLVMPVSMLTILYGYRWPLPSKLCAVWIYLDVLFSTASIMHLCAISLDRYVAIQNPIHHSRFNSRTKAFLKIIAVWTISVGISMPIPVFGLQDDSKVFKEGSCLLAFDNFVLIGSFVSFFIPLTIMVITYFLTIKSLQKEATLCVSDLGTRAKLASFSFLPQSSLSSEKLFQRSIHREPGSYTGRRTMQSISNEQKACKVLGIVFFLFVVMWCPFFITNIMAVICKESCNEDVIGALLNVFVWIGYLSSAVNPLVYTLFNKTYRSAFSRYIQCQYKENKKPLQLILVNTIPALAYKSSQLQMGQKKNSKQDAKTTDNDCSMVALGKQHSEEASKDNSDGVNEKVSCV

Experiments:
5-HT2CR = 5-HT2CR (Homo sapiens, UniProt P28335); experiment: Radioligand binding (competitive displacement and saturation), cell membranes; settings: read-out: Kd of radioligand at 5-HT2C; saturation binding; ± SEM, n=3
5-HT2BR = 5-HT2BR (Homo sapiens, UniProt P41595); experiment: as above; settings: read-out: Kd of radioligand at 5-HT2B; saturation binding; ± SEM, n=2
D231F^5.35 5-HT2AR = D231F^5.35 5-HT2AR (Homo sapiens, UniProt P28223, D231F); experiment: Exploratory saturation radioligand binding at point-mutated 5-HT2AR; settings: membranes of transfected HEK293 cells (FIGS. 14A-14D)

For [^3H]Mesulergine [reference compound], the Kd (5-HT2CR) was 1 ± 0.17 nM, the Kd (5-HT2BR) was 2.82 ± 0.35 nM and the “specific binding to D231F^5.35 5-HT2ARs” value (D231F^5.35 5-HT2AR) was “no specific binding is detected”.
